Protein sequences, listed by entry. Tags and fused reporters are not part of them.
UniProt P30543, whole entry: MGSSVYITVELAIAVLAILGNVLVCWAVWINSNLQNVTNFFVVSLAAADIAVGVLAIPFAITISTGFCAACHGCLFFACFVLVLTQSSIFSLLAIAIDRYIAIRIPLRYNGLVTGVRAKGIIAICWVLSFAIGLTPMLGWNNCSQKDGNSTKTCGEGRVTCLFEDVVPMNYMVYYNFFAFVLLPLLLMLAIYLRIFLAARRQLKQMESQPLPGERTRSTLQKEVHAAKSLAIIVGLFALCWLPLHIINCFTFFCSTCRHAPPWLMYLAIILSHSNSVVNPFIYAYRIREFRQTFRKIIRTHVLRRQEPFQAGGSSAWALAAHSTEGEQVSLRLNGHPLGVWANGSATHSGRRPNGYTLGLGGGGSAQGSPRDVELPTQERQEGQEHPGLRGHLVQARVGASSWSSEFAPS
UniProt P25099, whole entry: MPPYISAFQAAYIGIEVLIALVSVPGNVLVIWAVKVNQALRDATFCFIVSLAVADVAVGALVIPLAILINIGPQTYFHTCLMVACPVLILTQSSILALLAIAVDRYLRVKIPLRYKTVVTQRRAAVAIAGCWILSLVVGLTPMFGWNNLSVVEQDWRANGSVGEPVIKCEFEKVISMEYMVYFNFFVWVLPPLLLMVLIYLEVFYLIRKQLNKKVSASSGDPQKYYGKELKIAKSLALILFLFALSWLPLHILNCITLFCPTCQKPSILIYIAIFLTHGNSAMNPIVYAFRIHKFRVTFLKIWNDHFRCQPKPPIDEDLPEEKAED

According to patent US20030114375A1, “Method for treating cystic fibrosis” (The Government of the USA, Dept of Health and Human …, priority 1994, published 2003):

How the values were obtained:
[1] = target: A2a-adenosine receptor (Rattus norvegicus, UniProt P30543); assay: Inhibition of [3H]CGS 21680 binding to A2a receptors; conditions: read-out: Ki, μM(A2); rat striatal membranes, 5 nM [3H]CGS 21680
[2] = target: A1-adenosine receptor (Rattus norvegicus, UniProt P25099); assay: Inhibition of [3H]N6-phenylisopropyladenosine binding to A1 receptors; conditions: read-out: Ki, μM(A1); rat cerebral cortex membranes, 1 nM [3H]PIA
[3] = system: CFPAC cells; assay: [36Cl]- efflux from CFPAC cells

Cn1c(=O)c2[nH]c(C3CCCCC3)nc2n(C)c1=O
Ki [1]: 1.04 µM | Ki [2]: 0.03 µM | Chloride efflux stimulation (summary words) [3]: stimulate chloride efflux at μM or lesser concentrations | Conc. max. (nM): concentration at maximum impact upon chloride efflux [3]: 3 nM | thresh (nM): minimum concentration required to detect an effect upon chloride efflux [3]: 0.1 nM
